This passage reports IC50 results from paper PMC8878330 (Molecules, 2022).

By UniProt entry, the sequences of proteins in these tests, tags left out. Residues count along the entry.
UniProt C7C422, 29-270 limits assumed: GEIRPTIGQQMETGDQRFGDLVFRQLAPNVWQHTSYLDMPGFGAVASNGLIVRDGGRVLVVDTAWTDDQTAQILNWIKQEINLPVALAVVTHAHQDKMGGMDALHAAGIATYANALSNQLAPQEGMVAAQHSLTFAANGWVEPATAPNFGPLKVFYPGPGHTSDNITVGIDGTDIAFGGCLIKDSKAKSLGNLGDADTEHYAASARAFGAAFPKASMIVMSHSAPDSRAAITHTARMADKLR

For the assay, the target named is T1, New Delhi metallo-β-lactamase-1 (NDM-1) (Klebsiella pneumoniae, UniProt C7C422).
T1 construct: gene blaNDM-1
The assay is described as follows: biochemical.

Turning to `CN(Cc1cnc2nc(N)nc(N)c2n1)c1ccc(C(=O)N[C@@H](CCC(=O)O)C(=O)O)cc1` [methotrexate], 29.7 µM corresponded to half-maximal inhibition (IC50).

As usually defined, the IC50 is the concentration at which inhibition is half-maximal. Low readings indicate higher potency, high ones lower potency.
